Tests used:
mPFC VIP neurons = assay: Patch-clamp recordings of mPFC VIP neurons in slices after in vivo drug injection; details: firing neurons after ketamine
SERT = details: concentration range typically capped at 10 μM; cited from earlier work
human SERT = human SERT (Homo sapiens, UniProt P31645); details: read-out: dissociation constant (Kd)

The chains behind the UniProt entries cited, without tags or fusion partners.
UniProt P31645, whole entry: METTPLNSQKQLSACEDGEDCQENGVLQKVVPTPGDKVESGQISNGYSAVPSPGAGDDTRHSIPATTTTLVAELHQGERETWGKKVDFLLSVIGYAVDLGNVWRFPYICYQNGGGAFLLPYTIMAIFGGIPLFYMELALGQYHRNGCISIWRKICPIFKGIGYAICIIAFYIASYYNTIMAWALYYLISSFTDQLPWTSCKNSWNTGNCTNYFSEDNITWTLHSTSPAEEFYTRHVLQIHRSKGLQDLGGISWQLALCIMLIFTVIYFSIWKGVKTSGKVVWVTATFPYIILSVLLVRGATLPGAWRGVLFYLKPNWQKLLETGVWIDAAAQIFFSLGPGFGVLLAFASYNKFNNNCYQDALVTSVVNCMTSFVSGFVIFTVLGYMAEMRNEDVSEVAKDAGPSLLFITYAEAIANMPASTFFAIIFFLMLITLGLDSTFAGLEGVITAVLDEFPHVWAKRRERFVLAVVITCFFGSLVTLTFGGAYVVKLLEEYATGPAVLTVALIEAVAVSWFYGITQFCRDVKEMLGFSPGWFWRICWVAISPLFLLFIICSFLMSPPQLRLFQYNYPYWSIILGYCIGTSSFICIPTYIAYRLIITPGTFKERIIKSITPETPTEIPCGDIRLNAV

Row | Compound | neuronal membrane resistance of VIP neurons (mPFC VIP neurons) | binding of ketamine to SERT (SERT) | Kd (human SERT) [nM]
1 | CNC1(c2ccccc2Cl)CCCCC1=O (stereo not drawn) [ketamine] | increase in neuronal membrane resistance | minimal or weak binding | –
2 | [^3H]-imipramine | – | – | 2.42

— article PMC12707061 (National Science Review, 2025)
